Data on one compound can be found in patent US6989435B2, “Compounds and methods to inhibit or augment an inflammatory response” (Cambridge University Technical Services Ltd., priority 1997, dated 2006).

The structures appear in SMILES notation.

Test [1] concerns chemokine-induced THP-1 migration (MCP-1, MIP1α, IL8, SDF1α). The test can be described thus: Trans-well THP-1 migration assay, across the chemokines tested. The format is cell-based, human. As to the method:
To determine whether an agent inhibits a chemokine-induced activity, such as macrophage recruitment, varying amounts of the agent are mixed with cells in the presence of a known chemoattractant. […] Chemokine (such as MCP-1, MIP1α, IL8 or SDF-1α), at a concentration known to cause significant migration of THP-1 cells in the trans-well migration assay, is placed in the lower compartment (FIG. 1). […] After incubation, the cells are gently removed from the top of the filter with a pipette, 20 μl of 20 mM EDTA in simple PBS is added into each top well, and incubated for 20 minutes at 4° C. The filter is carefully flushed with media using a gentle flow, and removed. […] The media is carefully aspirated from each well, and the converted dye is solubilized by 20 μl of DMSO. Absorbance of converted dye is measured at a wavelength of 595 nm using an ELISA plate reader. The number of migrated cells in each well is then determined by interpolation of the standard curve (see also Imai et al., J. Biol. Chem., 272, 15036 (1997)). […] The framed filter was aligned with the holes in the corner of the filter frame and placed over the wells. Five×10^4 THP-1 cells in 25 μl of RPMI-1640 culture media were added to the upper compartment. […] Absorbance of converted dye was measured at a wavelength of 595 nm using an ELISA plate reader. […]

Test [2] has as its target T1, Duffy Antigen Receptor for Chemokines (DARC) (Homo sapiens, UniProt Q16570).
T1 sequence (Q16570 1-336): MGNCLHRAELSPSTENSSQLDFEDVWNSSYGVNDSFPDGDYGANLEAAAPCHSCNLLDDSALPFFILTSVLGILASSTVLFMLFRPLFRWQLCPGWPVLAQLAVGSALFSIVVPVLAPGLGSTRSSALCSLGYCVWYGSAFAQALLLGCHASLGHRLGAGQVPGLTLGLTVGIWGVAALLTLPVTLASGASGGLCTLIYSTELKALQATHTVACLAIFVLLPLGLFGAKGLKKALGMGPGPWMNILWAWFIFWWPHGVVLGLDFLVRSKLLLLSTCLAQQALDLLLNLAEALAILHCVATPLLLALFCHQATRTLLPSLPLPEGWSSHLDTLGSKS
As to the kind of experiment: DARC binding: competition with 125I-labeled MCP-1 on red blood cells.

As to `CC(C)[C@H](NC(=O)[C@@H](N)Cc1c[nH]c2ccccc12)C(=O)N[C@@H](CCC(N)=O)C(=O)O` [WVQ], in test [1] (MIP1α, IL8, SDF1α, read-out: ED50s for chemokines other than MCP-1), the IC50 is approximately 1000 nM. Moreover, the “CC SPECIFICITY” value in test [1] (Table 7, average inhibitory ED50 versus SDF1 and IL8 divided by average inhibitory ED50 versus MCP-1 and MIP1α) is recorded as 1.1. Further, in test [2] (Table 7, estimated ka for binding to red blood cells divided by average inhibitory ED50 versus each of the chemokines), the “DUFFY SELECTIVITY” value was 24.81. Further, the “DARC specificity ratio / Duffy selectivity” value in test [2] (estimated ka for association with DARC divided by the ED50 for biological activity) is recorded as 10.
